miR122 inh = inhibitors of miR-122 in Huh7 cells | Huh7 miR-122 Renilla luciferase sensor, 48 h; neutral wells = 0, positive control = 100 | activation (reporter increase), % at 12.5 µM | 340,000 tested, 0.3% active;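 active = mean replicate activation score at least 90 and every replicate individually at or above 90; inconclusive = only one of the two criteria met; inactive = neither criterion met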;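 also: higher luciferase means less miR-122 activity so hits act as miR-122 inhibitors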
Cneo AK release = causes C. neoformans cell lysis | 360,000 tested, 0.2% active | lysis activity, % at 15 µM | adenylate kinase release luminescence, 4 h; normalised: neutral wells 0, clomiphene wells 100;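 active = mean lysis activity across replicates of at least 80%, whatever share of replicates individually reach that level; inactive = mean lysis activity below 80%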
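Material – log-phase Cryptococcus neoformans yeast cells · Input – 5 × 10^6 yeast cells/mL · Medium – fresh YPD growth medium · Doses – single compound concentration per well · Timing – static 4 h at 37 °C with compound, 1 h detection · Detection – adenylate kinase release luminescence · Read-out – signal increase indicating cell lysis · Control set – Clomiphene as positive lysis control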
Yeast UUG start = modulators of yeast start codon fidelity, primary screen, whole organism, S. cerevisiae, single point, plate reader; activity score, % at 18.7 µM; actives 0.13% (n = 350,000); S. cerevisiae UUG-firefly luciferase reporter, luminescence/redox ratio;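 active = replicate mean at a twofold rise or more, about +100% in these data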;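 also: firefly luciferase made from a UUG start codon reports start codon fidelity; reporter light over untreated wells divided by growth signal over untreated wells; some hits fall short of that in this replicate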
HIV Env fusion = blocks HIV Env-driven cell-cell fusion; HeLa-JRFL Env/CEM21 cell fusion, luciferase; inhibition, % at 12.3 µM; 360,000 tested, 1.1% active;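 active = mean replicate inhibition score of at least 50 and every replicate individually at or above 50; inconclusive = only one of the two criteria met; inactive = mean below 50 and not all replicates reaching 50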;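 also: 0% = plate neutral controls and 100% = maraviroc near 300 nM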
PGC1a acetyl inh = PGC1a acetylation modulation, inhibitor mode | U2OS PGC1a acetylation, AlphaScreen anti-acetyl-lysine; with virally co-expressed GCN5 acetyltransferase | inhibition, % at 15.6 µM | 350,000 tested, 0.17% active | AID 651687;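 active = every replicate shows inhibition of at least 40%; inconclusive = mean inhibition at least 40% but some replicate below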;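 also: 0% = neutral control wells and 100% = positive control wells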
FN deposition inh = fibronectin deposition inhibition | AH1F fibroblasts, Alexa488-fibronectin deposition fluorescence, overnight | inhibition, % at 12.6 µM | 350,000 tested, 0.086% active;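 active = mean inhibition across replicates of 30% or more, regardless of how many single replicates reach that level; inconclusive = mean under 30% yet at least half of replicates reach 30%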;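 also: positive control wells lacked labelled fibronectin entirely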
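test system = AH1F fibroblasts assembling fluorescent fibronectin matrix | quantity = 10000 AH1F cells per well | buffer or medium = DMEM plus 2% serum, read in PBS | doses = single dose, pinned | incubation = 1 h cell attachment, overnight exposure to compound and label | detection = fluorescence at 485 nm excitation, 525 nm emission | read-out basis = inhibition from reduced deposited-fibronectin fluorescence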
An asterisk follows results filed as active; ? = inconclusive; · = not tested or not shown. Most compounds without a hit are left out; they make up all but 1.5% or so of the library.

Order of results: Cneo AK release	HIV Env fusion	FN deposition inh	PGC1a acetyl inh	miR122 inh	Yeast UUG start
1. O=C(CSc1nc(-c2ccco2)cc(C(F)(F)F)n1)Nc1ccc2c(c1)CCC2
    1	·	·	-7	7	-10
2. Cc1ccc(NC(=O)CSc2nc(-c3ccco3)cc(C(F)(F)F)n2)cc1C
    2	56*	2	·	45	-7
3. CC12CCC(C(=O)N3CCN(C(c4ccccc4)c4ccccc4)CC3)(OC1=O)C2(C)C (stereo not given)
    1	-12	-2	3	-7	-13
4. Cc1ccc(S(=O)(=O)N(C)C)cc1NC(=O)COc1ccccc1C(=O)Nc1ccccc1
    -1	74*	2	·	·	-7
5. CCCC[C@@]1(C2CCCC2)Cc2cc(OCC(=O)O)c(Cl)c(Cl)c2C1=O
    0	-42	-9	95*	-9	-17
6. CN1C(=O)c2cccc(N(C)C)c2C1=O
    1	·	·	2	·	5
7. O=C(NC1CCCCCC1)c1c2c(nc3ccccc13)CCN(Cc1ccccc1)C2
    ·	1	-1	·	·	·
8. Cc1cc(N2CCN(C)CC2)ccc1NC(=O)c1c2c(nc3ccccc13)CCN(Cc1ccccc1)C2
    ·	·	·	69*	·	·
9. CC(=O)c1ccc(NC(=O)Nc2ccc3c(c2)nc(C)n3C)cc1
    ·	-37	11	-2	·	·
10. COc1ccc(-c2ccc(/C=N/NC(=O)Cc3nnc(N)s3)o2)cc1Cl
    -1	-4	-6	57*	-5	-11
11. Cc1ccc(-c2ccc(/C=N/NC(=O)Cc3nnc(N)s3)o2)cc1Cl
    -5	-18	-16	?	-3	-10
12. Cc1cc(C)c(S(=O)(=O)Nn2cnnc2)c(C)c1
    0	10	33*	19	-1	-15
13. CC(C)N1CCc2c(sc(NC(=O)C3CCCCC3)c2C(N)=O)C1
    -1	9	-2	44*	-13	-3
14. O=C(Nc1ccc(Cl)cc1)C1CCCN(C2=NS(=O)(=O)c3ccccc32)C1 (stereo not given)
    -1	70*	3	8	-28	5
15. O=C(COc1ccccc1)Nc1ccc2c(c1)C(=O)N(CC1CCCO1)C2=O (stereo not given)
    -7	-12	0	·	·	1
16. CCc1ccc(NC(=O)CSCc2nc(N)nc(Nc3ccccc3CC)n2)cc1
    22	61*	2	-2	-5	-25
17. CCc1ccccc1Nc1nc(N)nc(CSCC(=O)Nc2ccc(C)c(C)c2)n1
    2	71*	19	10	-4	-20
18. Cc1ccccc1CSCc1nc(N)nc(Nc2ccccc2C)n1
    ·	-18	-5	3	1	·
19. CCc1ccccc1Nc1nc(N)nc(COC(=O)c2cccn2C)n1
    1	-33	5	-5	3	-3
20. O=C(NCc1ccc2c(c1)OCO2)C(=O)NC1CCCCC1
    0	-2	5	-24	-6	-16

Next section, overlapping the part above by four compounds.
Order of results: Cneo AK release	HIV Env fusion	FN deposition inh	PGC1a acetyl inh	miR122 inh	Yeast UUG start
17. CCc1ccccc1Nc1nc(N)nc(CSCC(=O)Nc2ccc(C)c(C)c2)n1
    2	71*	19	10	-4	-20
18. Cc1ccccc1CSCc1nc(N)nc(Nc2ccccc2C)n1
    ·	-18	-5	3	1	·
19. CCc1ccccc1Nc1nc(N)nc(COC(=O)c2cccn2C)n1
    1	-33	5	-5	3	-3
20. O=C(NCc1ccc2c(c1)OCO2)C(=O)NC1CCCCC1
    0	-2	5	-24	-6	-16
21. COc1ccc(Nc2ccc(N3C(=O)CCC3=O)cc2[N+](=O)[O-])cn1
    -2	-7	-5	3	-1	-16
22. COc1ccc(Nc2ccc(C(F)(F)F)cc2[N+](=O)[O-])cn1
    -1	59*	·	·	·	-6
23. COc1ccc(NS(=O)(=O)c2cccc(C(=O)NNC(=O)CNC(=O)c3ccc(C)cc3)c2)cc1
    -8	68*	2	·	·	-3
24. Cc1ccc(NS(=O)(=O)c2cccc(C(=O)N(C)Cc3cccs3)c2)cc1
    2	-7	12	·	100*	3
25. COc1ccc(NS(=O)(=O)c2cccc(C(=O)NNC(=O)CNC(=O)c3ccccc3F)c2)cc1
    -1	·	1	-8	-9	-5
26. CCN(CC(=O)NCc1cccs1)C(=O)c1cccc(S(=O)(=O)Nc2ccc(C)cc2)c1
    1	·	3	·	80	-12
27. CCn1nc(C(=O)OCC(=O)NCCN2C(=O)CSC2=O)c2ccccc2c1=O
    1	-221	7	0	3	0
28. Cc1ccc(-c2c(C(=O)N/N=C/c3cccs3)nnn2-c2nonc2N)cc1
    2	·	·	-2	8	-17
29. Cc1ccc(S(=O)(=O)N2CCOCC2)cc1NC(=O)c1cc2c(s1)CCC2
    0	-11	0	0	-15	-8
30. Cc1ccc(NC(=O)CCCOc2ccccc2)cc1S(=O)(=O)N1CCOCC1
    0	10	0	-3	-3	5
31. Cc1ccc(NC(=O)c2cc3c(s2)CCC3)cc1S(=O)(=O)N1CCOCC1
    -1	58*	3	·	48	-15

High-throughput results deposited in PubChem by Broad Institute.
